Amino acid sequences for entries named in this document (tags omitted).
UniProt P27487, whole entry, species assumed: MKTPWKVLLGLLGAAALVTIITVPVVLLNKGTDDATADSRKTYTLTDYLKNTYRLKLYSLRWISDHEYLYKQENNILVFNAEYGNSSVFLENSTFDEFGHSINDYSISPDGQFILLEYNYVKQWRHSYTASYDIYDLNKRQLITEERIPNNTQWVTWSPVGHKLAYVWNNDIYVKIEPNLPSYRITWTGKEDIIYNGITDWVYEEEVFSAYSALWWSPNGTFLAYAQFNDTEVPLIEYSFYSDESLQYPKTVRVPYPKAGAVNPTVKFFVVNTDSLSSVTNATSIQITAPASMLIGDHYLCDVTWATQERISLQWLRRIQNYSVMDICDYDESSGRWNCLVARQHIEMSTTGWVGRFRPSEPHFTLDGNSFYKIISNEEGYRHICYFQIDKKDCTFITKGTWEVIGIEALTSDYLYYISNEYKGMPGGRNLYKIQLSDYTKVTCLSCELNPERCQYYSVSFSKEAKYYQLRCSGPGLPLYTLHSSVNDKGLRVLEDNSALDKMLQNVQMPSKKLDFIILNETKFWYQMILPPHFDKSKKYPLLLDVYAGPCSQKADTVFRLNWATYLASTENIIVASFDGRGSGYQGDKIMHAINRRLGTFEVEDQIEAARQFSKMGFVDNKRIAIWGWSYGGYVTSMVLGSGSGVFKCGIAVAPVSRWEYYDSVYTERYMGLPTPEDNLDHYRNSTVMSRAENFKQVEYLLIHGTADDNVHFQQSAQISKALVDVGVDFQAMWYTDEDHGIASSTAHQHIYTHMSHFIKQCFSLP

According to US20190055279A1, “NOVEL POLYPEPTIDES WITH IMPROVED PROTEOLYTIC STABILITY, AND METHODS OF PREPARING AND USING SAME” (TUFTS UNIVERSITY, priority 2015, published 2019):

Key:
DPP4 = DPP4 (Homo sapiens, UniProt P27487); test: Sensitivity to DPP4: overnight incubation with recombinant DPP4 or vehicle, then receptor agonist bioassay; details: overnight incubation with or without DPP4, readout at cognate receptor
Method: Plotting concentration versus the luciferase activity yielded quantitative parameters for combined binding (potency) and signaling (efficacy) in a single step. […] DPP4 treated peptides: 10 μl of 0.26 mM peptide were incubated with 2 μL DPP4 in buffer ±DMSO for 18 hrs. Control peptides: 10 μl of 0.26 mM peptide was added to buffer ±DMSO. The final DMSO concentration was the same for all peptides and all peptides were diluted to 0.26 mM concentrations for the DPP4 assay.
Compounds are incubated overnight at 37° C. in the presence of recombinant DPP4 or vehicle (TRIS buffer). The samples are then assessed in GLP-1R agonist assays.
Compounds were incubated overnight at 37° C. in the presence of recombinant DPP4 or vehicle (TRIS buffer, pH 8.0). The samples were then assessed in GLP1R agonist assays as described elsewhere herein.

[1] = Plasma drug activity after bolus injection via central catheter in rats, bioassay of receptor agonism; format: in vivo; details: compared with liraglutide
Description: Rats received a bolus injection of either drug via central catheter, followed by serial blood draws after indicated intervals and measurement of plasma drug activity by bioassay of receptor agonism. Potency of each peptide immediately following injection was defined as 100%.

Structure (SMILES): CCCCCCCCCCCCCCCC(=O)N[C@@H](CCC(=O)NCCCC[C@H](NC(=O)[C@H](C)NC(=O)[C@H](C)NC(=O)[C@H](CCC(N)=O)NC(=O)CNC(=O)[C@H](CCC(=O)O)NC(=O)[C@H](CC(C)C)NC(=O)[C@H](Cc1ccc(O)cc1)NC(=O)[C@H](CO)NC(=O)[C@H](CO)NC(=O)[C@@H](NC(=O)[C@H](CC(=O)O)NC(=O)[C@H](CO)NC(=O)[C@@H](NC(=O)[C@H](Cc1ccccc1)NC(=O)[C@@H](NC(=O)CNC(=O)[C@H](CCC(=O)O)NC(=O)[C@H](C)NC(=O)[C@H](Cc1c[nH]cn1)NCC(F)(F)F)[C@@H](C)O)[C@@H](C)O)C(C)C)C(=O)N[C@@H](CCC(=O)O)C(=O)N[C@@H](Cc1ccccc1)C(=O)N[C@H](C(=O)N[C@@H](C)C(=O)N[C@@H](Cc1c[nH]c2ccccc12)C(=O)N[C@@H](CC(C)C)C(=O)N[C@H](C(=O)N[C@@H](CCCNC(=N)N)C(=O)NCC(=O)N[C@@H](CCCNC(=N)N)C(=O)NCC(=O)O)C(C)C)[C@@H](C)CC)C(=O)O [Lira-4]
- DPP4 degradation / resistance (in words) (DPP4): remained intact
- plasma survival (time-dependent decrease of plasma drug activity) [1]: extended
